Patent publication US20250179194A1, “COMPOSITIONS AND METHODS FOR IMMUNOTHERAPY TARGETING FLT3, PD-1, AND/OR PD-L1” (Cytoimmune Therapeutics, Inc., priority 2018, published 2025)

Tested on: surface FLT3 expression in MOLM-13, U937, THP-1, MV4-11, and EOL-1 AML cell lines
Assay: Surface FLT3 expression in AML cell lines after FLT3 inhibitor treatment
Type: cell-based, human
Conditions: 10 μM, 48 hours

CC(C)(C)c1cc(NC(=O)Nc2ccc(-c3cn4c(n3)sc3cc(OCCN5CCOCC5)ccc34)cc2)no1 [Quizartinib (AC220), Quizaritinib]
FLT3 surface expression in AML cell lines: upregulated
